This note sets out measurements from ChEMBL document CHEMBL4477202, “Synthesis and evaluation of duocarmycin SA analogs incorporating the methyl 1,2,8,8a-tetrahydrocyclopropa[c]imidazolo[4,5-e]indol-4-one-6-carboxylate (CImI) alkylation subunit” (Bioorg Med Chem, 2016).

This assay can be described thus: Solvolysis reactivity of the compound in phosphate buffer assessed as solvolytic rate constant at pH 3 upto 187 hrs by UV spectrophotometry.

Turning to `COC(=O)c1cc2c([nH]1)C(=O)C=C1N(C(=O)OC(C)(C)C)CC3CC123` (configuration not stated), the K was found to be 1.08 ×10⁻⁶ /s.

On to `COC(=O)c1nc2c([nH]1)C(=O)C=C1N(C(=O)OC(C)(C)C)CC3CC123` (configuration not stated), for which the K was 5.52 ×10⁻⁶ /s.
